Results on one substance are retold here after PMC12284618, “Design of Potent Mannose‐6‐Phosphate Derivatives as Ligands for CI‐M6P/IGF2R Using Fluorescence Polarization Assay” (Chemistry (Weinheim an Der Bergstrasse, Germany), 2025).

The experiment deals with T1, CI‐M6P/IGF2R:D1–D15 (Homo sapiens, UniProt P11717).
T1 construct: domains 1–15 (residues AA 41–2304); gp67 signal peptide (X1) (N, cleaved yes); 6‐His‐tag (C); PreScission protease cutting site (C); TwinStrep‐tag (C); made in house; host or cells: Spodoptera frugiperda Sf9 insect cells (baculovirus, pFastBac-1), secreted into the medium
The experiment is described as follows: Competitive fluorescence polarization assay (displacement of fluorescent glycopeptide 1). Type of experiment: binding. The text has this:
The gene encoding human CI‐M6P/IGF2R domains 1–15 (residues AA 41–2304) fused to an N‐terminal gp67 signal peptide ([…]) and C‐terminal 6‐His‐tag, PreScission protease cutting site, and TwinStrep‐tag in pFastBac‐1 vector was used for bacmid generation in DH10Bac E. coli (Thermo Fisher Scientific). The recombinant bacmid DNA was purified using alkaline extraction and transfected using ExpiFectamine‐Sf (Thermo Fisher Scientific) into Spodoptera frugiperda 9 (Sf9) cells. […] Expression of the recombinant protein was assessed by SDS‐PAGE and Western Blot analysis. […]
We employed a fluorescence polarization (FP) binding assay to assess the binding affinity of the tested compounds for a soluble CI‐M6P/IGF2R ectodomain construct. […] Upon binding to the CI‐M6P/IGF2R protein, the probe's rotation slows, resulting in increased fluorescence polarization. This shift is quantified as anisotropy (or polarization), which reflects the ratio of bound to free probe, enabling binding affinity estimation without phase separation.^[ [26] ^]
In all experiments, the compounds were dissolved in water and serially diluted with water in Echo Qualified 384‐Well PP Source Microplates using a BRAVO pipetting station (Agilent, USA). […] After 30 minutes, fluorescence polarization was measured using a Tecan Spark plate reader (Tecan, Switzerland) with excitation at 485 nm and emission at 535 nm. […]
(In general: Fluorescence polarisation rises when a labelled molecule tumbles more slowly, as on binding a larger partner.)

What is called IC50 is the point on the concentration scale where inhibition reaches its midpoint. A low value points to greater potency. Regarding “mannose‐6‐phosphate [Compound 7, reference compound]”, for the setting “(IC50 of compound 2 / IC50 of compound) × 100”, the “Potency (relative binding potency)” value turned out to be 3.6%. For the setting “receptor 300 nM, glycopeptide 1 10 nM, pH 8.0, mean of two independent measurements in triplicate ± S.D.”, this substance showed a half-inhibitory concentration (IC50) of 13.1 ± 2.8 µM.
